Values of other authors in patent US8242148B2 (priority 2005, dated 2012).

Chains of the proteins cited; added tags and fusions are not shown. Lines headed by an entry give the natural chain unless they say otherwise; changes in a name come on top.
UniProt Q9QYN8: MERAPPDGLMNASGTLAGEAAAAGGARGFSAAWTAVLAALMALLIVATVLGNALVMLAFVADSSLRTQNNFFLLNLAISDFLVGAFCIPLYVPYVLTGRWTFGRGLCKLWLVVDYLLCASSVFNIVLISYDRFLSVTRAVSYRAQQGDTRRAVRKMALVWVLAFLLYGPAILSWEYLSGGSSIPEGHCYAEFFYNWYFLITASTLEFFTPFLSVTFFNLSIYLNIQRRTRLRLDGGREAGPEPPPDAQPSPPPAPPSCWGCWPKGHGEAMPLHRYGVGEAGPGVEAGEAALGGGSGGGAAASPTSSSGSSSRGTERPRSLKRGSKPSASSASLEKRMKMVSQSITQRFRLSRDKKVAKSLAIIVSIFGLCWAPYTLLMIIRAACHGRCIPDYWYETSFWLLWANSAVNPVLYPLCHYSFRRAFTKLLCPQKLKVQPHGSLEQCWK

Biological target: T1, H3 receptor (Rattus norvegicus, UniProt Q9QYN8)
T1 construct: In rats, a selective H3 receptor antagonist, ABT-239; host or cells: living rats (prefrontal cortex, hippocampus)
Settings: rats, cited from earlier work

## C[C@@H]1CCCN1CCc1cc2cc(-c3ccc(C#N)cc3)ccc2o1 [ABT-239]
Prefrontal cortex and hippocampus
  Acetylcholine release: enhancement of acetylcholine release
  Learning in an inhibitory avoidance model of ADHD: improving learning
